Test: Thermal inactivation after desugaring of egg white
Format: physicochemical
Settings: 54 and 56° C., 1, 3, 5 and 8 minutes
Method: 100 μL of the desugared egg white was subjected to a heat treatment at a temperature of 54, 56, and 58° C. for 1, 3, 5, and 8 minutes, respectively, and then cooled on ice, and the residual activity of each enzyme was measured.

Glucose oxidase
residual enzyme activity in desugared egg white after heat treatment: no substantial reduction in the activity

Reference: patent US10167453B2, “Saccharide oxidase, and production method for same and use of same” (AMANO ENZYME INC., priority 2012, dated 2019)
